Measured values: patent US20230002397A1, “SMALL MOLECULE DEGRADERS OF HELIOS AND METODS OF USE” (DANA-FARBER CANCER INSTITUTE, INC., priority 2019, published 2023)

The chains behind the UniProt entries cited, without tags or fusion partners.
UniProt Q96SW2, whole entry: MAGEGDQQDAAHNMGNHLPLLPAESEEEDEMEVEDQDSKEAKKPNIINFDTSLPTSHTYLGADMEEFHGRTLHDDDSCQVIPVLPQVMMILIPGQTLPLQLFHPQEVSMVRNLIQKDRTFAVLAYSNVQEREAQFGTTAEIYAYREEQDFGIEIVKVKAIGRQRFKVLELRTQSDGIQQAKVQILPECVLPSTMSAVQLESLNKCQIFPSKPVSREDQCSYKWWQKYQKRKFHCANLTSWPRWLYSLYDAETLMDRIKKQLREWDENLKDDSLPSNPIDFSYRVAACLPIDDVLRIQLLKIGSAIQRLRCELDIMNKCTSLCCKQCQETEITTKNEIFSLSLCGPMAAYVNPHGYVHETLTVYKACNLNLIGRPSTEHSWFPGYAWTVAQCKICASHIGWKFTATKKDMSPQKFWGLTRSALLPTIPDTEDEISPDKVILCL
UniProt Q9UKS7, whole entry: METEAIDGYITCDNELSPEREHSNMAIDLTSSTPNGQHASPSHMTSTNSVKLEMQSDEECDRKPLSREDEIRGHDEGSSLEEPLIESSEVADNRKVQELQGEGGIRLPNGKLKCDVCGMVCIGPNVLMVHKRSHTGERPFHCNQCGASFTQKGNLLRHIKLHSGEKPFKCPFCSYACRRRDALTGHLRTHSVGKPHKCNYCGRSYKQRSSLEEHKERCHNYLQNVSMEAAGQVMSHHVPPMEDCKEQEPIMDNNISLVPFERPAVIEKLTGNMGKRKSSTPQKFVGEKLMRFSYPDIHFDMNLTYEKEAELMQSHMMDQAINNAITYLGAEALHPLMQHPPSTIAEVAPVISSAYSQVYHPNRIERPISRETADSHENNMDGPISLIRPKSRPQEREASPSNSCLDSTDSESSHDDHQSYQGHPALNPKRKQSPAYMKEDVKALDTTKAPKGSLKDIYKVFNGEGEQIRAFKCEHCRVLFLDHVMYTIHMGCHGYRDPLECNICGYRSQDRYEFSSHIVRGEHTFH
UniProt Q16531, whole entry partner: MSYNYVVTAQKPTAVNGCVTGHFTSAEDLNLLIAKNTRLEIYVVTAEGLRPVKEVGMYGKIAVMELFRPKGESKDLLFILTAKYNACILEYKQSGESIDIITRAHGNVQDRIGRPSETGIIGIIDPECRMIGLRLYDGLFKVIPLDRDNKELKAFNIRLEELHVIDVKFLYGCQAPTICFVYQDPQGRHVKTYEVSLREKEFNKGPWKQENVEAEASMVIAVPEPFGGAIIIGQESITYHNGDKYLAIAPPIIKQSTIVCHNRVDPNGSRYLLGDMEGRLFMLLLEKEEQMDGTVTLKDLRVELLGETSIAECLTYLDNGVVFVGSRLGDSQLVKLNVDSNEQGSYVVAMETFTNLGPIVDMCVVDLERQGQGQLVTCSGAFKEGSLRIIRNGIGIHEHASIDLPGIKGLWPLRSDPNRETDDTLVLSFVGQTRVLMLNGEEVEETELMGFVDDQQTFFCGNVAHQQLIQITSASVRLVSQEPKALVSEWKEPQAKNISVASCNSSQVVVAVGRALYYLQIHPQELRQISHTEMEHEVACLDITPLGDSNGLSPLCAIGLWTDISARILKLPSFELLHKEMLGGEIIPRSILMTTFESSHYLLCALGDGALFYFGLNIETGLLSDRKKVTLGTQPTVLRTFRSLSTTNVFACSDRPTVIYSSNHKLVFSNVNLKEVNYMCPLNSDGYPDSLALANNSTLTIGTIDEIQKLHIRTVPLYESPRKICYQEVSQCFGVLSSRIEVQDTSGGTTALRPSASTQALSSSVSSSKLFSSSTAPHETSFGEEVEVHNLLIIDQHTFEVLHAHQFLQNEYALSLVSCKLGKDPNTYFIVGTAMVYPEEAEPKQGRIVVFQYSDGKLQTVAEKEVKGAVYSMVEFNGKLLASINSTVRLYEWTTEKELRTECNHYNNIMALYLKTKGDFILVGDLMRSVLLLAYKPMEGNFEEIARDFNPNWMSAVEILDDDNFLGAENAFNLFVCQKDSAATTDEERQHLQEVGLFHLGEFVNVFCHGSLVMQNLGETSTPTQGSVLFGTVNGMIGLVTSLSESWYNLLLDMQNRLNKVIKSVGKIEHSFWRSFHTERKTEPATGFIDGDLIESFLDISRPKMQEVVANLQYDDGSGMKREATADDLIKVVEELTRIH

Target: IKZF2 (Homo sapiens, UniProt Q96SW2+Q9UKS7)
Assay: HiBit-IKZF2 assay (HiBiT-Helios degradation in MOLT4 cells)
Conditions: for DC50: concentration at which 50% of HiBiT-Helios degradation was achieved; for Dmax: extent of degradation from highest to lowest concentration, 10 μM to 0.00026 μM

Row | Structure (SMILES) | DC50 [nM] | Dmax
1 | O=C1CCC(N2Cc3cc(C4CCN(Cc5cccc6c5CCCN(c5ccccn5)C6=O)CC4)ccc3C2=O)C(=O)N1 (stereo not drawn) | 10 to 30 | + (“+” is from >30% to <50%)
2 | O=C1CCC(N2Cc3cc(C4CCN(Cc5cccc(N6CC7CC7C6=O)c5)CC4)ccc3C2=O)C(=O)N1 (stereo not drawn) | 10 to 30 | ++ (“++” is from >50% to <70%)
3 | O=C1CCC(N2Cc3cc(C4CCN(Cc5cccc(N6CCCC6=O)c5)CC4)ccc3C2=O)C(=O)N1 (stereo not drawn) | 10 to 30 | ++ (“++” is from >50% to <70%)
4 | O=C1CCC(N2Cc3cc(C4CCN(Cc5cccc6c5CCN(c5ccccn5)C6=O)CC4)ccc3C2=O)C(=O)N1 (stereo not drawn) | 10 to 30 | ++ (“++” is from >50% to <70%)
5 | O=C1CCC(N2Cc3cc(C4CCN(Cc5ccc6c(c5)C(=O)N(c5ccccn5)CC6)CC4)ccc3C2=O)C(=O)N1 (stereo not drawn) | < 10 | ++ (“++” is from >50% to <70%)
6 | O=C1CCC(N2Cc3cc(C4CCN(Cc5cccc6c5CCN(c5ccccc5)C6=O)CC4)ccc3C2=O)C(=O)N1 (stereo not drawn) | 10 to 30 | ++ (“++” is from >50% to <70%)
7 | O=C1CCC(N2Cc3cc(C4(O)CCN(Cc5ccccc5)CC4)ccc3C2=O)C(=O)N1 (stereo not drawn) | < 10 | +++ (“+++” is >70%)
8 | O=C1CCC(N2Cc3cc(C4CCN(Cc5cccc6c5CCCN(c5ccccc5)C6=O)CC4)ccc3C2=O)C(=O)N1 (stereo not drawn) | 10 to 30 | ++ (“++” is from >50% to <70%)
9 | O=C1CCC(N2Cc3cc(C4CCN(Cc5ccc6c(c5)NC(=O)c5ccccc5O6)CC4)ccc3C2=O)C(=O)N1 (stereo not drawn) | 10 to 30 | ++ (“++” is from >50% to <70%)
